Experimental data published in patent publication US11111251B2, “Positive allosteric modulators of the muscarinic acetylcholine receptor M1” (Vanderbilt University, priority 2016, dated 2021).

Sequences of proteins named here, by UniProt entry; tags and fusion partners are left off. A change or cut given only in a name is not applied to a line headed by its entry.
UniProt P11229: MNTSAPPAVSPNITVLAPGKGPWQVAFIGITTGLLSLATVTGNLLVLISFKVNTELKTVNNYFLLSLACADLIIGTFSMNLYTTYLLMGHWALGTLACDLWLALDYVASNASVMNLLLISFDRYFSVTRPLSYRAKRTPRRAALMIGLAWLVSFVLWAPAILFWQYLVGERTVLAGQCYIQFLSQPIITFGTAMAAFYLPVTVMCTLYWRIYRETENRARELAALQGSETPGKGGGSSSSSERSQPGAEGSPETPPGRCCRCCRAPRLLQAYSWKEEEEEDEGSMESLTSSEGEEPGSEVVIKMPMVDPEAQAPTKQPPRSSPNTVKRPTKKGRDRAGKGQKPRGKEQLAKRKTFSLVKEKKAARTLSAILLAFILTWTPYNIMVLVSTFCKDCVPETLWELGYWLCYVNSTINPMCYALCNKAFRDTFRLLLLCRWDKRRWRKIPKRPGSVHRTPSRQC

Biological target: human mAChR M1 (Homo sapiens, UniProt P11229)
Assay: mAChR M1 cell-based functional assay: calcium mobilization, positive allosteric modulator mode (increase in EC20 acetylcholine response)
Settings: Table 2
Description: a. Cell Lines Expressing Muscarinic Acetylcholine Receptors
Chinese hamster ovary (CHO-K1) cells stably expressing rat (r)M1 were purchased from the American Type Culture Collection and cultured according to their indicated protocol. CHO cells stably expressing human (h)M2, hM3, and hM5 were described previously (Levey, et al., 1991); hMi and hM4 cDNAs were purchased from Missouri S&T cDNA Resource; rM4 cDNA was provided by T. I. Bonner (National Institutes of Health, Bethesda, Md.). rM2 and rM3 were cloned from a rat brain cDNA library and sequence verified. hMi, rM2, rM3, hM4, and rM4 cDNAs were used to stably transfect CHO-K1 cells purchased from the American Type Culture Collection using Lipofectamine2000. […]
Calcium flux was measured using the Functional Drug Screening System (FDSS) 6000 (Hamamatsu Corporation, Tokyo, Japan) as an increase in the fluorescent static ratio. […] Agonist activity was analyzed as a concentration-dependent increase in calcium mobilization upon compound addition. Positive allosteric modulator activity was analyzed as a concentration-dependent increase in the EC20 acetylcholine response. Antagonist activity was analyzed as a concentration-dependent decrease in the EC80 acetylcholine response. […]

N-[(1S,2S)-2-hydroxycyclohexyl]-7-(4-[(4-2-ylphenyl)methyl]thieno[3,2-b]pyridine-5-carboxamide [Compound 295]
EC50: 0.0525 µM
